{"sequences": {"note": "Amino acid sequences for entries named in this document (tags omitted). Residues count along the entry.", "UniProt P09619, 33-1106 limits assumed": "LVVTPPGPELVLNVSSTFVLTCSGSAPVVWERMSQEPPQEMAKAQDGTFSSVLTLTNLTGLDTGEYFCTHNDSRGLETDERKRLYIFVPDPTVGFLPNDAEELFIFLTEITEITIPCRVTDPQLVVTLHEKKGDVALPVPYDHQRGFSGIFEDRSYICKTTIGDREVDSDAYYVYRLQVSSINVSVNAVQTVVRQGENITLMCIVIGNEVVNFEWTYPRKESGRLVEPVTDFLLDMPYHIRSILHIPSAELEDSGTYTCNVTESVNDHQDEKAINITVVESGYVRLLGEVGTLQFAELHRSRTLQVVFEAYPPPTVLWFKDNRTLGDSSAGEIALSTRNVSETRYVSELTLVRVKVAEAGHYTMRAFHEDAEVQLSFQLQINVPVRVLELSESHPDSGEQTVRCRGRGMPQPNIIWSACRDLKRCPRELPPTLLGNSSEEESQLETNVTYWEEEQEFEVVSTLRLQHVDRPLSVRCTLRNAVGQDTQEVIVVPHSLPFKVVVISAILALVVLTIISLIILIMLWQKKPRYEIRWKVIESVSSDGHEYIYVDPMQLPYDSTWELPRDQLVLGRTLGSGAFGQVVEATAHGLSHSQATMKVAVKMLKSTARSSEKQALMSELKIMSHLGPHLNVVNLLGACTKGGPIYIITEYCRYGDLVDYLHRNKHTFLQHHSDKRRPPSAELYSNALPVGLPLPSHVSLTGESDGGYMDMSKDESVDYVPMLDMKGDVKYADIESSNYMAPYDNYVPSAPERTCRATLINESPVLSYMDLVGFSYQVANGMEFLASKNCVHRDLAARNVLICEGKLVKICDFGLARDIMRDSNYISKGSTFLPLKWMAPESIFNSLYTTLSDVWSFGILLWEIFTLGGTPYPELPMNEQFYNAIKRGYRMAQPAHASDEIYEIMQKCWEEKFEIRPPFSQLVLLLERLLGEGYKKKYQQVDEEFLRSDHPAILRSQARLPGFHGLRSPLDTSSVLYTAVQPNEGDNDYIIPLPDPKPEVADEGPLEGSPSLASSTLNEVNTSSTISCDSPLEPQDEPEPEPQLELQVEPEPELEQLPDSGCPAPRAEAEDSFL"}, "source": "patent US11046672B2", "about": "“Indolinones compounds and their use in the treatment of fibrotic diseases” (RESPIVERT LIMITED, priority 2015, dated 2021)", "key": {"PDGFRβ [1]": {"target": "T1, PDGFRβ (Homo sapiens (Human), UniProt P09619)"}, "PDGFRβ [2]": {"target": "T1, PDGFRβ", "test": "PDGF-BB induced phosphorylation of PDGFRβ in fibroblasts (MRC5 cells, HTRF)", "assay_type": "cell-based", "settings": "read-out: PDGFBB-induced PDGFRβ phosphorylation in MRC5 cells (IC50), n = 1 unless otherwise indicated"}, "MRC5 cells": {"tested_on": "MRC5 cells", "settings": "MTT"}}}
{"smiles": "COC(=O)c1ccc2c(c1)NC(=O)/C2=C(\\Nc1ccc(C(=O)NOCCN(C)C)c(C)c1)c1ccccc1", "values": [{"measurement": "% Recovery", "setting": "PAMPA permeability assay; PAMPA, donor and acceptor compartments", "value": 91, "unit": "%"}, {"measurement": "Mean Papp", "setting": "PAMPA permeability assay; pH 7, 10 μM, 5 hr", "value": "0.0138 10^−6 cm s^−1"}, {"measurement": "Ki", "setting": "PDGFRβ [1]", "value": 11.5, "unit": "nM"}, {"measurement": "IC50", "setting": "PDGFRβ [2]", "value": 4.4, "unit": "nM"}, {"measurement": "Cell viability at 100 nM (%)", "setting": "MRC5 cells; 100 nM", "value": 110.2, "unit": "%"}, {"measurement": "Cell viability at 300 nM (%)", "setting": "MRC5 cells; 300 nM", "value": 98.8, "unit": "%"}, {"measurement": "Cell viability at 1000 nM (%)", "setting": "MRC5 cells; 1000 nM", "value": 61.2, "unit": "%"}]}
